{"source": "patent US4194006A", "about": "“Therapeutic application of acetyl-d,l-carnitine and other acyl derivatives of d,l-carnitine” (priority 1977, dated 1980)", "key": {"isolated rabbit hearts": {"tested_on": "isolated rabbit hearts", "experiment": "coronary vasodilator effect: coronary flow, isolated heart (Langendorff)", "conditions": "5·10^-6 g/lt", "experimental": "The cardiokinetic effect on isolated heart was also investigated as follows. Rabbit hearts isolated by the Langendorff method were perfused with oxygenized ringer solution at 38.2° C. The isometric contractions, electrocardiogram and coronary flow were recorded using a \"Battaglia-Rangoni\" polygraph. By removing the oxygen from the perfusion fluid, metabolic damage was induced in the cardia muscle, up to an 80% reduction in the cardiac contractile force.\nUnder these conditions of prolonged anoxia the aerobic glycolysis of the myocardium is slowed down, accompanied by the storage of acid catabolites due to both the accumulation of pyruvic acid and its conversion to lactic acid which cannot be utilized because of the depression of pyridine enzymes, such as LDH (lactodehydrogenase). This has repercussions on the anaerobic glycolysis affecting an ever increasing number of enzymes, accompanied by a progressive and increasingly critical exhaustion of the myocardium. Thus a whole series of cardiac muscle fatigue levels occurs which can be observed by the behavior of the examined parameters, namely the contractile force, coronary flow, heart rate and cardiac rhythm. As soon as the contractile force was reduced by 80%, the perfusion fluid was once again oxygenized either without adding other compounds (controls) or with the addition of the compounds under examination. […]"}, "in vivo": {"experiment": "in vivo", "conditions": "mouse, iv", "text": "(§1) The tolerance of acetyl-d,l-carnitine and of the other aforementioned acyl derivatives of the formula (I), as well as their salts were investigated by comparing the LD50 obtained by administering the compounds intravenously in mice with the LD50 obtained under the same experimental conditions by intravenous injection of d,l-carnitine."}, "mice": {"tested_on": "mice", "experiment": "in vivo", "conditions": "mouse, iv", "text": "as §1"}}, "data": [{"molecule": "CCCC(=O)OC(CC(=O)[O-])C[N+](C)(C)C", "note": "(racemic) [butyryl-d,l-carnitine]", "values": [{"measurement": "Coronary flow, Mean ± S.E.", "setting": "isolated rabbit hearts", "value": "74.21 ± 8.78", "unit": "%"}, {"measurement": "LD50", "setting": "in vivo", "value": "~742", "unit": "mg/kg"}, {"measurement": "tolerance", "setting": "mice", "value": "better tolerance properties"}]}, {"molecule": "CCCCCC(=O)OC(CC(=O)[O-])C[N+](C)(C)C", "note": "(racemic) [hexanoyl-d,l-carnitine]", "values": [{"measurement": "LD50", "setting": "in vivo", "value": "~695", "unit": "mg/kg"}]}, {"molecule": "CCCCCCCC(=O)OC(CC(=O)[O-])C[N+](C)(C)C", "note": "(racemic) [octanoyl-d,l-carnitine]", "values": [{"measurement": "LD50", "setting": "in vivo", "value": "~630", "unit": "mg/kg"}]}, {"molecule": "CCC(=O)OC(CC(=O)[O-])C[N+](C)(C)C", "note": "(racemic) [propionyl-d,l-carnitine]", "values": [{"measurement": "LD50", "setting": "in vivo", "value": "~761", "unit": "mg/kg"}, {"measurement": "tolerance", "setting": "mice", "value": "better tolerance properties"}]}]}
